Curated experimental data: properties

Values as listed in the OPERA 2.9 repository of K. Mansouri.

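The numbers are reported measurements, compiled and curated for the OPERA QSAR suite. One number stands for a compound and property, with no spread given. How each value was measured is not recorded, so precision varies. A value may pool stereoisomers or salt forms, and the file does not say which form was measured. Unmarked limits or estimates from the upstream databases cannot be ruled out.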

Melting points are in °C.
Boiling points are in °C, nominally at 760 mmHg.
The octanol-water partition coefficient is given as log10; larger values mean a more lipophilic compound.
Solubility in water is on a log10 molar scale (set defined at 25 °C).
Vapor pressure is log10 of mmHg; the set covers 15 to 30 °C, mostly 20 to 25 °C.
Henry's law constant (air-water partitioning) is log10 of atm·m3/mol, nominally at 25 °C.
fu is the fraction unbound in human plasma, from 0 to 1.
Intrinsic clearance (human, µL/min per 10^6 hepatocytes): higher is faster turnover, and 0 stands for none detected.
Cells with "–" have no entry in this list.

| structure (SMILES) | name | mp (°C) | BP (°C) | logP | log S (log10 mol/L) | log VP (log10 mmHg) | log H (log10 atm·m3/mol) | plasma fu | intrinsic clearance (µL/min/10^6 cells) |
|---|---|---|---|---|---|---|---|---|---|
| CNC1(C)C2CCC(C2)C1(C)C (configuration not stated) | Mecamylamine | – | – | 2.7 | -3.13 | – | – | – | – |
| O=C1OCC(CO)O1 (configuration not stated) | 1,3-Dioxolan-2-one, 4-(hydroxymethyl)- | – | – | -1.39 | – | -2.156 | – | – | – |
| C/C=C\c1ccc(OCc2ccccc2)c(OC)c1 | 1-Benzyloxy-2-methoxy-4-(1-propenyl)benzene | – | – | 4.02 | -5.579 | -4.722 | – | – | – |
| CCCCCCCCCCCCCCCC[N+](C)(C)CC(=O)[O-] | – | 61.6 | – | 0.009 | – | – | – | – | – |
| c1ccc(N(CC2CO2)CC2CO2)cc1 (configuration not stated) | 2-Oxiranemethanamine, N-(2-oxiranylmethyl)-N-phenyl- | – | 204 | 1.96 | -1.962 | -3.894 | – | – | – |
| NS(=O)(=O)c1cc(S(=O)(=O)c2cccc(O)c2)co1 | 4-[(3-Hydroxyphenyl)sulfonyl]-2-thiophenesulfonamide | 145 | – | 1.4 | -2.696 | – | – | – | – |
| CC(=O)Oc1ccccc1C(=O)Nc1ncc([N+](=O)[O-])s1 | Nitazoxanide | – | – | 1.2 | -4.61 | – | – | – | – |
| C=CC(=O)OCCOC(=O)NCCCC | 2-Propenoic acid, 2-[[(butylamino)carbonyl]oxy]ethyl ester | -8.75 | – | – | -1.635 | – | – | – | – |
| CC/C=C\CCOC(=O)c1ccccc1 | (3Z)-Hex-3-en-1-yl benzoate | – | – | – | -3.705 | -2.472 | – | – | – |
| CC1CCCCCCCCCCCCC(=O)C1 (configuration not stated) | 3-Methylcyclopentadecan-1-one | – | – | 6.06 | -5.744 | -3.628 | – | – | – |
| CCCCCCCCCCCCCC(=O)OC(C)C | Isopropyl tetradecanoate | – | – | 7.71 | -7.29 | – | – | – | – |
| O=C(O)C1(C(=O)Nc2ccc(Cl)cc2Cl)CC1 | Cyclanilide | 195.8 | – | 3.25 | -3.759 | -7.201 | -9.136 | – | 0.34 |
| Brc1ccc(Oc2ccccc2)cc1Br | 3,4-Dibromodiphenyl ether | 20 | – | – | – | -4.047 | – | – | – |
| COCc1ccc(C=O)o1 | 2-Furancarboxaldehyde, 5-(methoxymethyl)- | -17.07 | – | – | – | -1.745 | – | – | – |
| C[C@]12CCC(=O)C=C1CC[C@@H]1[C@@H]2CC[C@@]2(C)[C@H]1CC[C@@]2(O)CCCO | (17beta)-17-Hydroxy-17-(3-hydroxypropyl)androst-4-en-3-one | 163.6 | – | 2.51 | -3.754 | -13.4 | – | – | – |
| CC(=O)O[C@@]1(C(C)=O)CC[C@@H]2[C@H]3CCC4=CC(=O)CC[C@@]4(C)[C@@H]3CC[C@]21C | Hydroxyprogesterone acetate | – | – | 3.2 | -5.567 | -12.82 | – | – | – |
| O=C=Nc1ccccc1Cc1ccccc1N=C=O | 2,2'-Methylenedi(phenyl isocyanate) | 42.24 | – | – | – | -4.131 | – | – | – |
| CC1(C)CC(NCCCCCCNC2CC(C)(C)NC(C)(C)C2)CC(C)(C)N1 | – | – | – | 0.6 | -2.351 | -7.223 | – | – | – |
| C=CCc1ccc(O)c(OC)c1 | Eugenol | – | – | – | – | – | – | 0.1922 | 103.6 |
| Nc1ccc(O)cc1[N+](=O)[O-] | 4-Amino-3-nitrophenol | – | – | 1.01 | -1.834 | -4.913 | – | – | – |
| O=C1OC(=O)C2CCCCC12 (configuration not stated) | Hexahydrophthalic anhydride | – | – | 1.33 | -1.565 | -2.634 | – | – | – |
| COc1ccc(N=NC(C(C)=O)C(=O)Nc2ccccc2OC)c([N+](=O)[O-])c1 (configuration not stated) | Pigment Yellow 65 | 225 | – | – | -8.308 | – | – | – | – |
| COC(=O)CN(CC(=O)OC)c1cc(NC(C)=O)c(/N=N/c2c(Br)cc([N+](=O)[O-])cc2[N+](=O)[O-])cc1OC | – | – | – | 4.5 | -6.664 | -7.054 | – | – | – |
| CC(=O)c1ccc(C)cc1 | p-Methylacetophenone | – | – | – | -2.557 | -0.409 | – | – | – |
| C=C(C)C(=O)Oc1ccccc1 | Phenyl methacrylate | – | – | 2.74 | -2.495 | -2.255 | – | – | – |
| CC(C)C1OC2(CCCC2)OCC1(C)C (configuration not stated) | 6,10-Dioxaspiro[4.5]decane, 8,8-dimethyl-7-(1-methylethyl)- | – | – | 5.33 | -3.524 | – | – | – | – |
| CC(C)(O)c1ccccc1CC[C@H](O)c1cccc(C=Cc2ccc3ccc(Cl)cc3n2)c1 | – | 122.3 | – | 4.9 | -6.619 | -9.98 | – | – | – |
| O=C(c1ccc(O)cc1)c1ccc(C(=O)c2ccc(O)cc2)cc1 | – | 307.9 | – | – | -6.6 | – | – | – | – |
| CCC(N)(CO)CO | 2-Amino-2-ethyl-1,3-propanediol | – | – | -0.123 | – | -2.663 | – | – | – |
| CCOC(=O)C1C2CCC(CC2)C1N.Cl (configuration not stated) | – | 148.6 | – | -0.55 | – | -5.077 | – | – | – |
| COc1cc(C(=O)Nc2ccc3nn(C4CCCCC4)nc3c2)cc(OC)c1OC | – | 130 | – | 4.45 | – | – | – | – | – |
| CCCCC(=O)OCC(=O)[C@H]1[C@H](C)C[C@H]2[C@@H]3C[C@H](F)C4=CC(=O)C=C[C@]4(C)[C@H]3[C@@H](O)C[C@@]21C | – | 207 | – | 4.23 | -6.487 | – | – | – | – |
| CCCCCCCCCCCCCCCCCCOC(=O)CCS | Propanoic acid, 3-mercapto-, octadecyl ester | 35.28 | – | 3.9 | – | -6.904 | – | – | – |
| CC(=O)c1ccc2c(c1)CCCC2 | 6-Acetyl-1,2,3,4-tetrahydronaphthalene | – | – | – | -3.233 | -3.013 | – | – | – |

Extract of 4 entries:

{"smiles": "C[C@]12CCC(=O)C=C1CC[C@@H]1[C@@H]2CC[C@@]2(C)[C@H]1CC[C@@]2(O)CCCO", "name": "(17beta)-17-Hydroxy-17-(3-hydroxypropyl)androst-4-en-3-one", "mp (°C)": "163.6", "logP": "2.51", "log S (log10 mol/L)": "-3.754", "log VP (log10 mmHg)": "-13.4"}
{"smiles": "C=CCc1ccc(O)c(OC)c1", "name": "Eugenol", "plasma fu": "0.1922", "intrinsic clearance (µL/min/10^6 cells)": "103.6"}
{"smiles": "C/C=C\\c1ccc(OCc2ccccc2)c(OC)c1", "name": "1-Benzyloxy-2-methoxy-4-(1-propenyl)benzene", "logP": "4.02", "log S (log10 mol/L)": "-5.579", "log VP (log10 mmHg)": "-4.722"}
{"smiles": "CC(=O)c1ccc(C)cc1", "name": "p-Methylacetophenone", "log S (log10 mol/L)": "-2.557", "log VP (log10 mmHg)": "-0.409"}